Results taken from patent US20250127790A1, “COMBINATION THERAPY USING VPS34 INHIBITORS” (Deciphera Pharmaceuticals, LLC, priority 2021, published 2025).

Test system: A-498 cells
Assay: Western blot, STAT1 phosphorylation in A-498 cells
Format: cell-based, human
Conditions: 5 ng/mL recombinant IFNβ, positive control
Description: A-498 cells were seeded at 1.5×10^5 cells/well in 6-well plates and cultured overnight. Cells were treated with 10 μg/mL mouse monoclonal antibody to human interferon α/β receptor chain 2 (α-IFNAR2) (clone: MMHAR-2, #21385-1, PBL Assay Science) or 10 μg/mL mouse IgG2a isotype control antibody (clone: eBM2a, #16-4724-81, Thermo Fisher Scientific). After 1 h, DMSO or 2 μM Compound 1 was added and cells were incubated for another 24 h. Treatment with 5 ng/mL recombinant IFNβ (#300-02BC, PeproTech) was used as a positive control. A-498 cells were washed in PBS and lysed in RIPA buffer (50 mM Tris HCl pH=7.4, 150 mM NaCl, 1% Triton X-100, 0.5% Na-deoxycholate, 0.1% SDS) containing protease inhibitor cocktail (#11836170001, Roche), and phosphatase inhibitor (#11836170001, Roche) for 10 min at 4° C. After centrifugation at 15000 rpm for 10 min at 4° C., the supernatant was obtained, and protein concentration was quantified using BCA assay (#23225, Thermo Fisher). Equal amounts were mixed with 0.1 M DTT and LDS Sample Buffer (#84788, Thermo Fisher), heated for 5 min at 90° C. before loading onto 4-12% Bis-Tris gels. Proteins were transferred to nitrocellulose membranes. […] Band intensities were quantified using Image Studio Lite software version 5.2.5 (LI-COR).

B1: IFNβ: recombinant IFNβ (#300-02BC, PeproTech) used as a positive control (protein, UniProt P01574 22-187, looked up)
Interferon beta: MSYNLLGFLQRSSNFQCQKLLWQLNGRLEYCLKDRMNFDIPEEIKQLQQFQKEDAALTIYEMLQNIFAIFRQDSSSTGWNETIVENLLANVYHQINHLKTVLEEKLEKEDFTRGKLMSSLHLKRYYGRILHYLKAKEYSHCAWTIVRVEILRNFYFINRLTGYLRN
STAT1 phosphorylation: increased
